This is an account of results in ChEMBL document CHEMBL3120088, “Discovery of selective small molecule type III phosphatidylinositol 4-kinase alpha (PI4KIIIα) inhibitors as anti hepatitis C (HCV) agents” (J Med Chem, 2014).

For assay [1], the species on record is Homo sapiens. Description: Selectivity ratio of IC50 for PI3Kdelta (1 to 1044)/6xHis-tagged p85 (1 to 724) (unknown origin) to IC50 for GST-tagged PI4K-alpha (1 to 2044) (unknown origin).
Assay [2] is filed under the species Homo sapiens. Description: Selectivity ratio of IC50 for PI3Kbeta (1 to 1070)/6xHis-tagged p85 (1 to 724) (unknown origin) to IC50 for GST-tagged PI4K-alpha (1 to 2044) (unknown origin).
The species entered for assay [3] is Homo sapiens. Description: Selectivity ratio of IC50 for PI3Kalpha (1 to 1068)/6xHis-tagged p85 (1 to 724) (unknown origin) to IC50 for GST-tagged PI4K-alpha (1 to 2044) (unknown origin).
For assay [4], the species on record is Homo sapiens. Description: Selectivity ratio of IC50 for PI3Kgamma (2 to 1102) (unknown origin) to IC50 for GST-tagged PI4K-alpha (1 to 2044) (unknown origin).

On to `COc1ncc(-c2ccc3nc(N)n(-c4ccccc4C(F)(F)F)c(=O)c3c2)cc1S(=O)(=O)Nc1ccc(F)cc1F`, for which the Ratio IC50 in the assay listed under Homo sapiens [1], in the assay filed under Homo sapiens [2], in the assay listed under Homo sapiens [3] and in the assay filed under Homo sapiens [4] was 160 each time.
On to `COc1ncc(-c2ccc3nc(N)n(-c4ccccc4)c(=O)c3c2)cc1NS(C)(=O)=O`, for which the Ratio IC50 in the assay filed under Homo sapiens [1], in the assay filed under Homo sapiens [2], in the assay listed under Homo sapiens [3] and in the assay listed under Homo sapiens [4] was 5 throughout.
